Laboratory results as given in patent US8664225B2, “1-[2-(2,4-dimethylphenylsulfanyl)-phenyl] piperazine as a compound with combined serotonin reuptake, 5-HT3 and 5-HT1A activity for the treatment of pain or residual symptoms in depression relating to sleep and cognition” (H. Lundbeck A/S, priority 2007, dated 2014).

Test: Solubility in water

1-[2-(2,4-Dimethylphenylsulfanyl)-phenyl]piperazine meso-tartaric acid [meso-tartrate]
solubility in water: ~700 µg/mL
